Data published in ChEMBL document CHEMBL1145544, “Probing distal regions of the A2B adenosine receptor by quantitative structure-activity relationship modeling of known and novel agonists” (J Med Chem, 2008).

Molecular target: T1, Adenosine receptor A2b (Homo sapiens) (UniProt P29275)
T1 sequence (whole entry): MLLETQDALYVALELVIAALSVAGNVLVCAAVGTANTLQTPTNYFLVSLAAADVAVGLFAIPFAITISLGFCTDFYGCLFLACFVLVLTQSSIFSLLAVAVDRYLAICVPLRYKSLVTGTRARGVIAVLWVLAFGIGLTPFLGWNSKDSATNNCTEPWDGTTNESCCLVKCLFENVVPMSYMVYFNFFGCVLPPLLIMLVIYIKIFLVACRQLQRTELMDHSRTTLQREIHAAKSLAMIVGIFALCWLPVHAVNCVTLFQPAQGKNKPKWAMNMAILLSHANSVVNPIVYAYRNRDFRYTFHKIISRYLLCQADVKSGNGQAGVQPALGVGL
Assay: Agonist activity human adenosine A2B receptor expressed in CHO cells assessed as stimulation of adenylate cyclase relative to NECA
Assay type: functional, cell-based
Outline: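 Stably transfected CHO cells; cAMP accumulation by enzyme immunoassay kit. Relative potency computed as pEC50(compound) minus pEC50(NECA) determined in the same publication.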

Activity | SMILES
1.82 | OC[C@H]1O[C@@H](n2cnc3c(NC4CCCCC4)ncnc32)[C@H](O)[C@@H]1O
-1.08 | C[C@H](Cc1ccccc1)Nc1ncnc2c1ncn2[C@@H]1O[C@H](CO)[C@@H](O)[C@H]1O
